2 compounds from ChEMBL document CHEMBL5325467, “Discovery of novel hypoxia-activated, nitroimidazole constructed multi-target kinase inhibitors on the basis of AZD9291 for the treatment of human lung cancer” (Bioorg Med Chem, 2023) can be followed below.

The nature of this test: Selectivity index, ratio of IC50 for inhibition of wild type EGFR (unknown origin) to IC50 for inhibition of EGFR L858R/T790M mutant (unknown origin).

In the case of `Cn1cc(-c2ccnc(Nc3cc(OCCOCCn4ccnc4[N+](=O)[O-])ccc3F)n2)c2ccccc21`, the Ratio IC50 came out at 38.5.
For the compound `COc1ccc(Nc2nccc(-c3cn(C)c4ccccc34)n2)cc1OCCOCCn1ccnc1[N+](=O)[O-]`, the Ratio IC50 is 8.85.
